The nature of this data set: solubility of phosphatidic acid and short-chain analog in water. The note with it: native long acyl chains. The text has this:
Most native lipids have long fatty acyl side chains rendering them insoluble and difficult to work with in an aqueous environment.

Consider phosphatidic acid, for which the solubility in water result is “insoluble”.

The values above are taken from patent US8669065B1, “Methods for identifying molecules that modulate lipid binding sites of ion channels” (priority 2011, dated 2014).
